From PubChem BioAssay
Sampled rows, rich in hits. Any-hit rate of the full collection: about 13%.
miR-21 reporter = miR-21 reporter, rising signal; HeLa miR-21 FLuc reporter, luciferase, 48 h; Potency, µM (doses to about 38.3 µM), for inactives: at the highest dose reporter change, positive = more light; 340,000 tested, under 10 active; AID 2288; active = well fitted rising curve with a large enough effect; inconclusive = small, poorly fitted or top-dose-only effect; inactive = no such curve, though single readings can be large or run the other way;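 further: % of control where 0% means no effect; miR-21 action dims this reporter so a rising signal means less miR-21 action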
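Luminescence from a firefly luciferase reporter carrying a miR-21 binding site downstream, stably expressed under a CMV promoter in HeLa cells that make miR-21 endogenously, reports miRNA modulation after 48 h compound exposure up to approximately 40uM final.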
JMJD2E inh = blocks human JMJD2E demethylase activity; B2RXH2; 230,000 compounds, 1.6% hits; Potency, µM (top dose mostly 57.1 µM), inactives show at the top dose activity change, negative = inhibition, usual class: inhibitors; JMJD2E catalytic domain, FDH-coupled NADH fluorescence (FDH is formaldehyde dehydrogenase); AID 2147; active = well fitted inhibition curve with a large enough effect, not every such curve was filed as active; inconclusive = small, poorly fitted or top-dose-only effect, or another doubt; inactive = no such curve, though single readings can be large or run the other way;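 also: potency is read from the fitted curve at half-maximal effect; 0% = wells with enzyme and -100% = buffer wells without enzyme; nearly all actives have a fitted effect of over 50% in size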
G9a block = inhibitors of human histone lysine methyltransferase G9a | Potency, µM (series often up to 102 µM), for inactives: top-dose activity, negative = inhibition, usual class: inhibitors | G9a H3K9 monomethylation, AlphaScreen, 2 h | Q96KQ7 | 350,000 compounds, 8.8% hits; also: potency is read from the fitted curve at half-maximal effect; % is scaled to controls: 0 for no effect and ±100 for the full control effect; nearly all actives have a fitted effect of over 75% in size
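AlphaScreen read-out: biotin-H3K9 peptide (500 nM) methylation by 20 nM enzyme with 20 uM SAM, 2 h at room temperature after 15 min compound preincubation; anti-monomethyl H3K9 antibody plus donor/acceptor beads, 10 min dark.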
Lamin A splicing = LMNA splicing modulation; 200,000 compounds, 0.01% hits; Potency, µM (series often up to 46.1 µM), inactives show at the top dose ratio change, negative = inhibition, usual class: inhibitors; HeLa LMNA splicing GFP/RFP minigene ratio, 48 h; active = well fitted inhibition curve with a large enough effect in the signal ratio, with a control signal flat, not every such curve was filed as active; inconclusive = small, poorly fitted or top-dose-only effect, or effect the other way, or a change in a side signal; the % refers to the signal ratio; also: potency is read from the fitted curve at half-maximal effect; % is scaled to controls: 0 for no effect and ±100 for the full control effect
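S3 HeLa cells stably expressing lamin A-EGFP splicing minigene plus DsRed2, 600 cells/well, 48 h compound exposure at 37C. Laser-scanning cytometry; analysed as GFP (500-530 nm)/RFP (575-640 nm) total intensity ratio; 0.5% DMSO vehicle.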
ALDH1A1 block = ALDH1A1 (human) enzyme inhibition; P00352; Purified ALDH1A1, NADH fluorescence, propionaldehyde substrate; Potency, µM (series often up to 75.3 µM), inactives show at the top dose activity, negative = inhibition, usual class: inhibitors; 220,000 compounds, 7.3% hits; AID 1030; active = well fitted inhibition curve with a large enough effect, not every such curve was filed as active; inconclusive = small, poorly fitted or top-dose-only effect, or another doubt; inactive = no such curve, though single readings can be large or run the other way;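 also: potency is read from the fitted curve at half-maximal effect; plate controls were no enzyme wells and a reference inhibitor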
Sfp inh = blocks B. subtilis Sfp PPTase activity | Q9F4F7 | hit rate 3.5% among 310,000 | Potency, µM, without a hit: max response, negative = inhibition, most hits filed as inhibitors | AID 1490 | Biochemical Sfp PPTase activity, qHTS; active means well fitted inhibition curve with a large enough effect; inconclusive means small, poorly fitted or top-dose-only effect, or another doubt; inactive means no such curve, though single readings can be large or run the other way;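 further: the enzyme is Sfp with the accession as filed and its product quenches rhodamine fluorescence; potency means the concentration at half of the fitted maximal effect; 0% = enzyme reaction without inhibitor and -100% = no enzyme wells; top concentration of the series not given in the record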
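After 15 min at room temperature with compound, 15 nM Sfp received 5 uM rhodamine-CoA plus 12.5 uM BHQ-2-ybbR (50 mM Hepes pH 7.6, 10 mM MgCl2). Rate came from the fluorescence difference over 30 min, ex 525/em 598 nm.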
Starred values were filed as active, the others as inactive; [ ] = remark or other dose. Unless noted, calls follow the shape of the dose curve; as a rule, active = well fitted curve in the direction sought with a large enough effect; inconclusive = small, poorly fitted or top-dose-only effect, or another doubt; inactive = no such curve, though single readings can be large; an effect the other way counts as inactive or inconclusive.

For O=C(CSc1nnc(-c2cccs2)o1)NCC1CN(Cc2ccccc2)CCO1 (stereo not drawn) the results were miR-21 reporter -7.7%, JMJD2E inh -5.1%, G9a block 3.55µM*, Lamin A splicing -4.3%, ALDH1A1 block inconclusive and Sfp inh 14.2%.
CCOc1ccccc1NC1=C(Cl)C(=O)N(Cc2ccccc2)C1=O was read as miR-21 reporter -3.6%, JMJD2E inh -5.7%, G9a block 4.6%[12.7 µM], Lamin A splicing inconclusive, ALDH1A1 block 8.8% and Sfp inh -16.8%.
Screening COc1ccc(N2C(=O)C(Cl)=C(Nc3ccccc3O)C2=O)cc1 returned miR-21 reporter -26.0%, JMJD2E inh -5.2%, G9a block 3.55µM*, Lamin A splicing -19.6%, ALDH1A1 block 15.8µM* and Sfp inh 44.7µM*.
Screening CCOc1ccccc1NC1=C(Cl)C(=O)N(c2ccccc2)C1=O returned miR-21 reporter -2.5%, JMJD2E inh -4.7%, G9a block 3.16µM*, Lamin A splicing 2.7%, ALDH1A1 block -7.4% and Sfp inh -12.3%.
`COc1ccc(N2C(=O)C(Cl)=C(Oc3cccc(OC)c3)C2=O)cc1` gave miR-21 reporter 0.1%, JMJD2E inh -6.0%, G9a block 6.31µM*, Lamin A splicing inconclusive, ALDH1A1 block 17.8µM* and Sfp inh 8.91µM*.
For COc1ccc(N2C(=O)C(Cl)=C(Nc3ccccc3OC)C2=O)cc1 the results were miR-21 reporter -8.1%, JMJD2E inh -3.6%, G9a block 44.7µM*, Lamin A splicing inconclusive, ALDH1A1 block -1.8% and Sfp inh -9.1%.
Screening Cc1ccccc1-c1nnc(CN2CCN(c3cc(Cl)ccc3C)CC2)o1 returned miR-21 reporter -4.9% and G9a block 1.9%[59 µM].
Screening COc1ccc(N2C(=O)C(Cl)=C(N(CCO)Cc3ccccc3)C2=O)cc1 returned miR-21 reporter 4.3%, JMJD2E inh 5.2%, G9a block 50.1µM*, Lamin A splicing -1.1%, ALDH1A1 block -7.8% and Sfp inh -10.7%.
O=C1CC(c2ccco2)Cc2nc(N3CCN(Cc4ccc5c(c4)OCO5)CC3)ncc21 (stereo not drawn) was read as miR-21 reporter -1.7%, JMJD2E inh inconclusive, G9a block inconclusive, Lamin A splicing inconclusive, ALDH1A1 block 17.8µM* and Sfp inh inconclusive.
For COc1ccc(CN2CCC(C(=O)N3CCN(c4ccccc4F)CC3)CC2)cc1OC the results were miR-21 reporter -5.4%, JMJD2E inh inconclusive, G9a block inconclusive, Lamin A splicing 6.8%, ALDH1A1 block inconclusive and Sfp inh -2.0%.
COc1cccc(CN2CCC(C(=O)N3CCN(c4ccccc4F)CC3)CC2)c1OC was read as miR-21 reporter -2.6%, JMJD2E inh -28.7%, G9a block 10µM*, Lamin A splicing 0.1%, ALDH1A1 block -5.1% and Sfp inh -11.8%.
COc1cc(CN2CCC(C(=O)N3CCN(c4ccccc4F)CC3)CC2)cc(OC)c1OC was read as miR-21 reporter -2.0%, JMJD2E inh inconclusive, G9a block 25.1µM*, Lamin A splicing 12.3%, ALDH1A1 block -15.7% and Sfp inh -27.3%.
O=C1CN(CC(=O)NC2CCCc3ccccc32)CCN1 (stereo not drawn) was read as miR-21 reporter -1.5%, G9a block -10.5%[2.33 µM] and Sfp inh 19.1%.
C=NCc1cc2c(OC[C@@H](O)CNC(C)(C)C)cccc2[nH]1 was read as G9a block 28.9%[59 µM], ALDH1A1 block 2.2% and Sfp inh 30.9%.
Screening Cc1ccc(NC(=O)c2cc(S(=O)(=O)N3CCc4ccccc43)ccc2F)cc1Cl returned miR-21 reporter 13.4%, G9a block -7.9%[59 µM] and Lamin A splicing -2.8%[46 µM].
Screening C=CCNC(=O)c1ccccc1NC(=O)c1ccccc1N(C)S(C)(=O)=O returned miR-21 reporter -8.3%, JMJD2E inh -6.6%, G9a block 50.1µM*, ALDH1A1 block 1.8% and Sfp inh 7.4%.
For Cc1ccc(CNC(=O)c2ccccc2N(C)S(C)(=O)=O)cc1 the results were miR-21 reporter -0.2%, JMJD2E inh -2.7%, G9a block 39.8µM*, Lamin A splicing -20.5%[46 µM], ALDH1A1 block inconclusive and Sfp inh inconclusive.
CN(c1ccccc1C(=O)Nc1ccc(S(=O)(=O)N2CCCC2)cc1)S(C)(=O)=O was read as miR-21 reporter -0.6%, JMJD2E inh -0.9%, G9a block 7.9%, Lamin A splicing 14.4%, ALDH1A1 block 12.6µM* and Sfp inh 10.6%.
Screening CCCNC(=O)c1ccccc1NC(=O)c1ccccc1N(C)S(C)(=O)=O returned miR-21 reporter -5.9%, JMJD2E inh 1.2%, G9a block inconclusive, Lamin A splicing 0.0%, ALDH1A1 block -2.8% and Sfp inh 6.4%.
Screening CN(c1ccccc1C(=O)NCc1ccco1)S(C)(=O)=O returned miR-21 reporter -2.7%, JMJD2E inh 8.7%, G9a block -23.6%[12.7 µM], Lamin A splicing -4.4%, ALDH1A1 block 2.7% and Sfp inh inconclusive.
CC(C)OCCCn1c(=O)c2ccccc2n2c(-c3ccc(F)cc3)nnc12 was read as miR-21 reporter -0.4% and G9a block 28.2µM*.
CC(C)OCCCn1c(=O)c2ccccc2n2c(CCC(=O)O)nnc12 was read as miR-21 reporter -1.9%, G9a block 2.5% and Sfp inh 2.4%.
Screening COc1cc(-c2nnc3n(CCc4ccccc4)c(=O)c4ccccc4n23)cc(OC)c1OC returned miR-21 reporter -5.1%, JMJD2E inh 7.4%, G9a block 17.8µM*, Lamin A splicing -3.4%, ALDH1A1 block 0.224µM* and Sfp inh -9.5%.
`c1ccc(-c2nc(-c3ccncc3)n[nH]2)nc1` gave miR-21 reporter -15.2%, JMJD2E inh inconclusive and Sfp inh 14.1µM*.
For CC(=O)C1=C(O)C(=O)N(c2ccc(S(=O)(=O)Nc3nccs3)cc2)C1c1ccc([N+](=O)[O-])cc1 (stereo not drawn) the results were miR-21 reporter 2.5%, JMJD2E inh -6.7%, G9a block 79.4µM*, ALDH1A1 block inconclusive and Sfp inh 7.4%.
CC(=O)C1=C(O)C(=O)N(c2ccc(S(=O)(=O)Nc3nccs3)cc2)C1c1ccc(F)cc1 (stereo not drawn) was read as miR-21 reporter -0.1%, JMJD2E inh inconclusive, G9a block 56.2µM* and Sfp inh -6.9%.

A section from further up:
CC(C)OCCCn1c(=O)c2ccccc2n2c(CCC(=O)O)nnc12 was read as miR-21 reporter -1.9%, G9a block 2.5% and Sfp inh 2.4%.
Screening COc1cc(-c2nnc3n(CCc4ccccc4)c(=O)c4ccccc4n23)cc(OC)c1OC returned miR-21 reporter -5.1%, JMJD2E inh 7.4%, G9a block 17.8µM*, Lamin A splicing -3.4%, ALDH1A1 block 0.224µM* and Sfp inh -9.5%.
`c1ccc(-c2nc(-c3ccncc3)n[nH]2)nc1` gave miR-21 reporter -15.2%, JMJD2E inh inconclusive and Sfp inh 14.1µM*.
